Read-outs that look alike come from different tables or passages of the source.
Columns and labels:
[1] = molecular target: T1, GAL4-DNA binding domain (DBD)-RORγt fusion protein (full-length human RORγt) (Homo sapiens (Human), UniProt P51449); settings: for RORγt (FL) Reporter Assay, % inhibition @ 6 μM / IC50: HEK293T cells; for IC50: read-out: RORγt (FL) Reporter Assay, IC50
[2] = molecular target: T1, GAL4-DNA binding domain (DBD)-RORγt fusion protein (full-length human RORγt); assay: cell-based; settings: HEK-293T, read-out: RORγt (FL) Reporter Assay, % inhibition @ 6 μM, @ 6 μM; HEK293T cells
[3] = * at 2 μM compound concentration

By UniProt entry, the sequences of proteins in these tests, tags left out. Chains listed by the source or under a name are the forms on record and can include a tag or linker.
UniProt P51449, other isoform, or with tags, fused parts or gaps: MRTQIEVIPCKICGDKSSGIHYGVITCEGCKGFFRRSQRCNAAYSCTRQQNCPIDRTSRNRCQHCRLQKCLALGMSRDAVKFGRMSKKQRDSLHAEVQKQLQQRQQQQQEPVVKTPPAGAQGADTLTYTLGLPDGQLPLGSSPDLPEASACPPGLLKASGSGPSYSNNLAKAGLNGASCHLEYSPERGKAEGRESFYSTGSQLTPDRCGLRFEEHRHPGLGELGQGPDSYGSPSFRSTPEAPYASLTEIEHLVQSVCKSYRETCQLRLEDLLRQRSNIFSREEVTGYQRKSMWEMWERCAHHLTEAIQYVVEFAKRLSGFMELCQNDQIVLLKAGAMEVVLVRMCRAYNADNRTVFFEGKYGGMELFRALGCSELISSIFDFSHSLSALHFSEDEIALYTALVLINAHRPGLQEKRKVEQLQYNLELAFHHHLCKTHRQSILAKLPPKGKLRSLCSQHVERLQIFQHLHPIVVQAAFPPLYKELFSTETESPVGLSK

SMILES	RORγt (FL) Reporter Assay, % inhibition ([1]; unstarred values)	IC50 [1]	other results
COc1nc2ccc(C(O)(c3cnc(C)n3C)c3cnc(C)n3C)cc2c(Cl)c1OC1CCCN(C)C1 (single isomer, unassigned) [Example 51c, (4-Chloro-2-methoxy-3-{[1-methylpiperidin-3-yl]oxy}quinolin-6-yl)[bis(1,2-dimethyl-1H-imidazol-5-yl)]methanol]		> 6 µM	RORγt (FL) Reporter Assay, % inhibition @ 6 μM [1]: 13%
COc1nc2ccc(C(O)(c3ccnc(C(F)(F)F)c3)c3cnc(C)n3C)cc2c(Cl)c1CN1CCC(C(F)(F)F)CC1 (single isomer, unassigned) [Example 126b, (4-Chloro-2-methoxy-3-((4-(trifluoromethyl)piperidin-1-yl)methyl)quinolin-6-yl)(1,2-dimethyl-1H-imidazol-5-yl)(2-(trifluoromethyl)pyridin-4-yl)methanol]			RORγt (FL) Reporter Assay, % inhibition [1, 3]: 101* %
COc1nc2ccc(C(O)(c3ccc(C(F)(F)F)nc3)C3CN(C(C)=O)C3)cc2c(Cl)c1CN1CCC(C(F)(F)F)CC1 (single isomer, unassigned) [Example 131c, 1-(3-((4-Chloro-2-methoxy-3-((4-(trifluoromethyl)piperidin-1-yl)methyl)quinolin-6-yl)(hydroxy)(6-(trifluoromethyl)pyridin-3-yl)methyl)azetidin-1-yl)ethanone]			RORγt (FL) Reporter Assay, % inhibition [1, 3]: 94* %
COc1nc2ccc(C(O)(c3ccnc(C(F)(F)F)c3)c3cnc(C)n3C)cc2c(Cl)c1CN1CCC(C(F)(F)F)CC1 (single isomer, unassigned) [Example 126c, (4-Chloro-2-methoxy-3-((4-(trifluoromethyl)piperidin-1-yl)methyl)quinolin-6-yl)(1,2-dimethyl-1H-imidazol-5-yl)(2-(trifluoromethyl)pyridin-4-yl)methanol]			RORγt (FL) Reporter Assay, % inhibition [1, 3]: 78* %
COc1nc2ccc(C(O)(c3ccc(C(F)(F)F)nc3)c3cncn3C)cc2c(C#N)c1CN1CCC(C(F)(F)F)CC1 (single isomer, unassigned) [Example 191c, 6-(Hydroxy(1-methyl-1H-imidazol-5-yl)(6-(trifluoromethyl)pyridin-3-yl)methyl)-2-methoxy-3-((4-(trifluoromethyl)piperidin-1-yl)methyl)quinoline-4-carbonitrile]	95%		
COc1nc2ccc(C(O)(c3cnc(C)n3C)c3cnc(C)n3C)cc2c(Cl)c1OCC1CCCN1C (stereo not shown) [Example 52, {4-Chloro-2-methoxy-3-[(1-methylpyrrolidin-2-yl)methoxy]quinolin-6-yl}[bis(1,2-dimethyl-1H-imidazol-5-yl)]methanol]		> 6 µM	inhibition at 6 µM [2]: 10%
COc1nc2ccc(C(O)(c3cnnn3C)C3CN(C(C)=O)C3)cc2c(Cl)c1CN1CCC(C(F)(F)F)CC1 (single isomer, unassigned) [Example 123b, 1-(3-((4-Chloro-2-methoxy-3-((4-(trifluoromethyl)piperidin-1-yl)methyl)quinolin-6-yl)(hydroxy)(1-methyl-1H-1,2,3-triazol-5-yl)methyl)azetidin-1-yl)ethanone]	95%		
COc1nc2ccc(C(O)(c3ccc(C)nc3C)c3cnnn3C)cc2c(Cl)c1C(=O)N1CCCC1 (stereo not shown) [Example 151, [4-Chloro-2-methoxy-3-(pyrrolidin-1-ylcarbonyl)quinolin-6-yl](2,6-dimethylpyridin-3-yl)(1-methyl-1H-1,2,3-triazol-5-yl)methanol]	45%	> 6 µM	
COc1nc2ccc(C(O)(c3cnc(C)n3C)c3cnc(C)n3C)cc2c(Cl)c1OC1CCCN(C)C1 (single isomer, unassigned) [Example 51b, (4-Chloro-2-methoxy-3-{[1-methylpiperidin-3-yl]oxy}quinolin-6-yl)[bis(1,2-dimethyl-1H-imidazol-5-yl)]methanol]		> 6 µM	RORγt (FL) Reporter Assay, % inhibition @ 6 μM [1]: 4%

Now from value to molecule, other results behind:

RORγt (FL) Reporter Assay, % inhibition ([1]; unstarred values)	IC50 [1]	SMILES	other results
87%		COc1nc2ccc(C(O)(c3cnc(C)n3C)C3CCOCC3)cc2c(Cl)c1CN1CCC(C(F)(F)F)CC1 (single isomer, unassigned) [Example 130c, (4-Chloro-2-methoxy-3-((4-(trifluoromethyl)piperidin-1-yl)methyl)quinolin-6-yl)(1,2-dimethyl-1H-imidazol-5-yl)(tetrahydro-2H-pyran-4-yl)methanol]	
79%		COc1nc2ccc(C(O)(c3ccc(C)nc3C)c3cnnn3C)cc2c(Cl)c1C1CCCC1 (single isomer, unassigned) [Example 136b, (4-Chloro-3-cyclopentyl-2-methoxyquinolin-6-yl)(2,6-dimethylpyridin-3-yl)(1-methyl-1H-1,2,3-triazol-5-yl)methanol]	
5%	> 6 µM	COc1nc2ccc(C(O)(c3cnc(C)n3C)c3cnc(C)n3C)cc2c(Cl)c1CNC(=O)CCC(F)(F)F [Example 186, N-((6-(Bis(1,2-dimethyl-1H-imidazol-5-yl)(hydroxy)methyl)-4-chloro-2-methoxyquinolin-3-yl)methyl)-4,4,4-trifluorobutanamide]	
87%		COc1nc2ccc(C(O)(c3cnc(C)n3C)C3CN(C(C)=O)C3)cc2c(Cl)c1CN1CCC(C(F)(F)F)CC1 (single isomer, unassigned) [Example 124b, 1-(3-((4-Chloro-2-methoxy-3-((4-(trifluoromethyl)piperidin-1-yl)methyl)quinolin-6-yl)(1,2-dimethyl-1H-imidazol-5-yl)(hydroxy)methyl)azetidin-1-yl)ethanone]	
87%		COc1nc2ccc(C(O)(c3cnc(C)n3C)C3CN(C(C)=O)C3)cc2c(Cl)c1CN1CCC(C(F)(F)F)CC1 (single isomer, unassigned) [Example 124c, 1-(3-((4-Chloro-2-methoxy-3-((4-(trifluoromethyl)piperidin-1-yl)methyl)quinolin-6-yl)(1,2-dimethyl-1H-imidazol-5-yl)(hydroxy)methyl)azetidin-1-yl)ethanone]	
6%	> 6 µM	COc1nc2ccc(C(O)(c3cnc(C)n3C)c3cnc(C)n3C)cc2c(Cl)c1CNC(=O)CC(F)(F)F [Example 185, N-((6-(Bis(1,2-dimethyl-1H-imidazol-5-yl)(hydroxy)methyl)-4-chloro-2-methoxyquinolin-3-yl)methyl)-3,3,3-trifluoropropanamide]	
88%		COc1nc2ccc(C(O)(c3ccnc(C(F)(F)F)c3)c3cnnn3C)cc2c(Cl)c1CN1CCC(C(F)(F)F)CC1 (single isomer, unassigned) [Example 129b, (4-Chloro-2-methoxy-3-((4-(trifluoromethyl)piperidin-1-yl)methyl)quinolin-6-yl)(1-methyl-1H-1,2,3-triazol-5-yl)(2-(trifluoromethyl)pyridin-4-yl)methanol]	

From patent publication US10201546B2, “Quinolinyl modulators of RORγt” (Janssen Pharmaceutica NV, priority 2013, dated 2019)
